This is an account of results in US7056954B2, “Means for the modulation of processes mediated by retinoid receptors and compounds useful therefor” (The Salk Institute for Biological Studies, priority 1991, dated 2006).

Assay [1] deals with F9 cells. Kind of assay: F9 cell differentiation, tissue plasminogen activator activity. The format is cell-based, mouse. To be noted: concentration of 1 μM.
Assay [2] deals with Rhino mouse. Nature of the assay: Topical application, horn-filled utriculus size in the Rhino mouse. The format is in vivo. The following applies: 14 days; for Pilosebaceous structure size: vehicle control 178 μm.

With `CC1=C(/C=C/C(C)=C\C=C\C(C)=C\C(=O)O)C(C)(C)CCC1`, in assay [1], the “increased cellular activities of tPA” value is reported as 0.48±0.05. Besides, in assay [2] (0.01% topical), the “Pilosebaceous structure size (% red′n)” value is listed as “(−64%)” and the Pilosebaceous structure size is reported as 72 μm. In assay [2] (0.1% topical), the “Pilosebaceous structure size (% red′n)” value was “(−74%)” and the Pilosebaceous structure size amounted to 52 μm.
In turn, `CC1=C(/C=C/C(C)=C/C=C/C(C)=C/C(=O)O)C(C)(C)CCC1` [reference compound] yielded a Pilosebaceous structure size in assay [2] (0.01% topical) of 50 μm.
